# Measurements: PubChem BioAssay AID720707 (National Center for Advancing Translational Sciences (NCATS), 2013)
# By UniProt entry, the sequences of proteins in these tests, tags left out.
# UniProt O95398, whole entry: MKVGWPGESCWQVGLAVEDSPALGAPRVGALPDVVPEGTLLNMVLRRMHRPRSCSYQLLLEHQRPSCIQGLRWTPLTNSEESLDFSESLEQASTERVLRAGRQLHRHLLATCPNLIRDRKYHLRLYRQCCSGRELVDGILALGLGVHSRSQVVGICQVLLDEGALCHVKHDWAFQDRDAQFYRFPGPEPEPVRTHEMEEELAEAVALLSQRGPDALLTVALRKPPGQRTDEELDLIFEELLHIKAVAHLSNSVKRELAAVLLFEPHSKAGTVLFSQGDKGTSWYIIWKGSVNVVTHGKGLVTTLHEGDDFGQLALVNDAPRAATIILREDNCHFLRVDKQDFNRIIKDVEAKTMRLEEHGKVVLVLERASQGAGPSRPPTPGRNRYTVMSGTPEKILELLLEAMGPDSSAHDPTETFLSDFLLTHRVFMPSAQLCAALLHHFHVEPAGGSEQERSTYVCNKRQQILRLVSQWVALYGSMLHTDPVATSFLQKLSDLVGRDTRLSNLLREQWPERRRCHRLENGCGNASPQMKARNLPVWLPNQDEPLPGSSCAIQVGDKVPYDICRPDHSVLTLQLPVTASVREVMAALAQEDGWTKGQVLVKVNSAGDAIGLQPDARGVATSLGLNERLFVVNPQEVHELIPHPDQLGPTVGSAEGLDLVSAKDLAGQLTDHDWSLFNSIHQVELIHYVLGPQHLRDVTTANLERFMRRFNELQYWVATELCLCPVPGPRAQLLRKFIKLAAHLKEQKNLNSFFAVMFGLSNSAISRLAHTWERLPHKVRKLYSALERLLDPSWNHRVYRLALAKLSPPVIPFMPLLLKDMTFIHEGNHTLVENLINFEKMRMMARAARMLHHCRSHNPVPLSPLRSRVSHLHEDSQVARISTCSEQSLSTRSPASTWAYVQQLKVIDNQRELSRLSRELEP
# Only a part is listed here, and it is no random draw. Activity calls are given as the source filed them. The call rests on the fitted dose curve; in most records, active means well fitted activation curve with a large enough effect; inconclusive means small, poorly fitted or top-dose-only effect; inactive means no such curve, though single readings can be large or run the other way.
# Target: Rap guanine nucleotide exchange factor 3 (Homo sapiens) (UniProt O95398)
# Assay: qHTS for Agonist of cAMP-regulated guanine nucleotide exchange factor 3 (EPAC1): primary screen; further: nearly all actives have a fitted effect of over 60% in size
# Conditions: biochemical assay, 100% = response to 6.5 mM cAMP; at 154 µM (top of the series)
# Description: In multi-cellular eukaryotic organisms, the effects of cAMP are transduced by two ubiquitously-expressed intracellular cAMP receptors, the classic protein kinase A/cAMP-dependent protein kinase (PKA/cAPK) and the more recently discovered exchange protein directly activated by cAMP/cAMP-regulated guanine nucleotide exchange factor (EPAC/cAMP-GEF). Both PKA and EPAC are ubiquitously expressed in all tissues, and an increase in intracellular cAMP levels will lead to the activation of both PKA and EPAC. […]
# This qHTS will be used to screen the Molecular Libraries Small Molecule Repository (MLSMR) as a concentration-titration series using the NCGC unique quantitative screening (qHTS) platform to find activators for EPAC1. […] Activators are identified by monitoring the change in fluorescence signal as the exchanged free BODIPY-GDP has a reduced fluorescence compared to Rap1-bound BODIPY-GDP. […]
# Briefly, three uL of reagents (100 nM EPAC1, 250 nM RAP1B-BODIPY-GDP, 50 uM GDP) were dispensed into a 1536-well Greiner black solid-bottom medium binding assay plate. […] The assay plates were read at 5 minute intervals for 30 minutes in the ViewLux plate reader using 480nm excitation and 540nm emission filters. […]
row,SMILES,activation
1,CCC(=O)N(c1ccccc1)C1(COC)CCN(CCc2cccs2)CC1,inactive: -11%
2,CCC(=O)N(c1ccccc1)C1(COC)CCN(CCn2nnn(CC)c2=O)CC1,inactive: -16.7%
